ChEMBL document CHEMBL4270596, “Discovery of a potent non-oxime reactivator of nerve agent inhibited human acetylcholinesterase” (2018)
The source made the active and inactive calls. No cut-off for these calls is given here.

Sequences of proteins named here, by UniProt entry; tags and fusion partners are left off. A change or cut given only in a name is not applied to a line headed by its entry.
UniProt P22303: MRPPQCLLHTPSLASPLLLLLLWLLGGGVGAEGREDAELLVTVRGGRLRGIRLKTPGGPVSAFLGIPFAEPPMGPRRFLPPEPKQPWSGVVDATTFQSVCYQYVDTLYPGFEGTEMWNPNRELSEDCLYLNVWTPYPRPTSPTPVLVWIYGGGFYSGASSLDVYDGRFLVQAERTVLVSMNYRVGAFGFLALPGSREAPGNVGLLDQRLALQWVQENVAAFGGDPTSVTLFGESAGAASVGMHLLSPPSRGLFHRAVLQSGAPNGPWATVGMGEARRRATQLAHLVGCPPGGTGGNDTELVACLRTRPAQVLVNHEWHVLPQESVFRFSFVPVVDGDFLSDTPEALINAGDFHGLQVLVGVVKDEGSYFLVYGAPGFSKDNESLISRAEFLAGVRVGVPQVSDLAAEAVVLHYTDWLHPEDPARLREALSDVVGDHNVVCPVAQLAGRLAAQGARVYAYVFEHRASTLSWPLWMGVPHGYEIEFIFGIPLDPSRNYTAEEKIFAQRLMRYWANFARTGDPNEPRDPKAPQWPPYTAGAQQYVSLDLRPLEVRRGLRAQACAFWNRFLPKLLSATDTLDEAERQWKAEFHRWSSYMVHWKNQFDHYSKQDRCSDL

Assays:
[1] = biological target: Acetylcholinesterase (Homo sapiens) (UniProt P22303); experiment: Reactivation of GA-induced inhibition of AChE in human erythrocyte membranes at 10 to 1000 uM using acetylthiocholine as substrate measured after 2 to 60 mins by Ellman's method
[2] = biological target: Acetylcholinesterase (Homo sapiens) (UniProt P22303); experiment: Reactivation of GB-induced inhibition of AChE in human erythrocyte membranes at 10 to 1000 uM using acetylthiocholine as substrate measured after 2 to 60 mins by Ellman's method
[3] = biological target: Acetylcholinesterase (Homo sapiens) (UniProt P22303); experiment: Reactivation of GF-induced inhibition of AChE in human erythrocyte membranes at 10 to 1000 uM using acetylthiocholine as substrate measured after 2 to 60 mins by Ellman's method
[4] = biological target: Acetylcholinesterase (Homo sapiens) (UniProt P22303); experiment: Reactivation of VX-induced inhibition of AChE in human erythrocyte membranes at 10 to 1000 uM using acetylthiocholine as substrate measured after 2 to 60 mins by Ellman's method
[5] = biological target: Acetylcholinesterase (Homo sapiens) (UniProt P22303); experiment: Reactivation of PXE-induced inhibition of AChE in human erythrocyte membranes at 10 to 1000 uM using acetylthiocholine as substrate measured after 2 to 60 mins by Ellman's method
[6] = biological target: Acetylcholinesterase (Homo sapiens) (UniProt P22303); experiment: Reactivation of PXE-induced inhibition of AChE in human erythrocyte membranes at 1000 uM using acetylthiocholine as substrate measured after 20 mins by Ellman's method
[7] = biological target: Acetylcholinesterase (Homo sapiens) (UniProt P22303); experiment: Reactivation of VX-induced inhibition of AChE in human erythrocyte membranes at 1000 uM using acetylthiocholine as substrate measured after 20 mins by Ellman's method
[8] = biological target: Acetylcholinesterase (Homo sapiens) (UniProt P22303); experiment: Reactivation of GF-induced inhibition of AChE in human erythrocyte membranes assessed as pseudo first-order rate constant at 10 uM using acetylthiocholine as substrate measured after 2 to 60 mins by Ellman's method
[9] = biological target: Acetylcholinesterase (Homo sapiens) (UniProt P22303); experiment: Reactivation of VX-induced inhibition of AChE in human erythrocyte membranes assessed as pseudo first-order rate constant at 10 uM using acetylthiocholine as substrate measured after 2 to 60 mins by Ellman's method
[10] = biological target: Acetylcholinesterase (Homo sapiens) (UniProt P22303); experiment: Reactivation of VX-induced inhibition of AChE in human erythrocyte membranes at 10 uM using acetylthiocholine as substrate measured after 60 mins by Ellman's method relative to control; set-up: scale not given: the % may be the effect or the level left
[11] = biological target: Acetylcholinesterase (Homo sapiens) (UniProt P22303); experiment: Reactivation of GF-induced inhibition of AChE in human erythrocyte membranes assessed as pseudo first-order rate constant at 100 uM using acetylthiocholine as substrate measured after 2 to 60 mins by Ellman's method
[12] = biological target: Acetylcholinesterase (Homo sapiens) (UniProt P22303); experiment: Reactivation of PXE-induced inhibition of AChE in human erythrocyte membranes at 10 uM using acetylthiocholine as substrate measured after 60 mins by Ellman's method relative to control; set-up: scale not given: the % may be the effect or the level left
[13] = biological target: Acetylcholinesterase (Homo sapiens) (UniProt P22303); experiment: Reactivation of GB-induced inhibition of AChE in human erythrocyte membranes assessed as pseudo first-order rate constant at 100 uM using acetylthiocholine as substrate measured after 2 to 60 mins by Ellman's method
[14] = biological target: Acetylcholinesterase (Homo sapiens) (UniProt P22303); experiment: Reactivation of GA-induced inhibition of AChE in human erythrocyte membranes assessed as pseudo first-order rate constant at 10 uM using acetylthiocholine as substrate measured after 2 to 60 mins by Ellman's method
[15] = biological target: Acetylcholinesterase (Homo sapiens) (UniProt P22303); experiment: Reactivation of VX-induced inhibition of AChE in human erythrocyte membranes assessed as residual activity at 100 uM using acetylthiocholine as substrate measured within 10 mins by Ellman's method relative to control
[16] = biological target: Acetylcholinesterase (Homo sapiens) (UniProt P22303); experiment: Reactivation of GB-induced inhibition of AChE in human erythrocyte membranes at 10 uM using acetylthiocholine as substrate measured after 60 mins by Ellman's method relative to control; set-up: scale not given: the % may be the effect or the level left
[17] = biological target: Acetylcholinesterase (Homo sapiens) (UniProt P22303); experiment: Reactivation of PXE-induced inhibition of AChE in human erythrocyte membranes assessed as pseudo first-order rate constant at 10 uM using acetylthiocholine as substrate measured after 2 to 60 mins by Ellman's method
[18] = biological target: Acetylcholinesterase (Homo sapiens) (UniProt P22303); experiment: Reactivation of VX-induced inhibition of AChE in human erythrocyte membranes assessed as pseudo first-order rate constant at 100 uM using acetylthiocholine as substrate measured after 2 to 60 mins by Ellman's method
[19] = biological target: Acetylcholinesterase (Homo sapiens) (UniProt P22303); experiment: Reactivation of GB-induced inhibition of AChE in human erythrocyte membranes assessed as pseudo first-order rate constant at 10 uM using acetylthiocholine as substrate measured after 2 to 60 mins by Ellman's method
[20] = biological target: Acetylcholinesterase (Homo sapiens) (UniProt P22303); experiment: Reactivation of VX-induced inhibition of AChE in human erythrocyte membranes assessed as residual activity at 10 uM using acetylthiocholine as substrate measured within 20 mins by Ellman's method relative to control
[21] = biological target: Acetylcholinesterase (Homo sapiens) (UniProt P22303); experiment: Reactivation of GF-induced inhibition of AChE in human erythrocyte membranes at 10 uM using acetylthiocholine as substrate measured after 60 mins by Ellman's method relative to control; set-up: scale not given: the % may be the effect or the level left
[22] = biological target: Acetylcholinesterase (Homo sapiens) (UniProt P22303); experiment: Reactivation of GA-induced inhibition of AChE in human erythrocyte membranes assessed as pseudo first-order rate constant at 100 uM using acetylthiocholine as substrate measured after 2 to 60 mins by Ellman's method
[23] = biological target: Acetylcholinesterase (Homo sapiens) (UniProt P22303); experiment: Reactivation of PXE-induced inhibition of AChE in human erythrocyte membranes assessed as pseudo first-order rate constant at 100 uM using acetylthiocholine as substrate measured after 2 to 60 mins by Ellman's method
[24] = biological target: Acetylcholinesterase (Homo sapiens) (UniProt P22303); experiment: Reactivation of GF-induced inhibition of AChE in human erythrocyte membranes at 1000 uM using acetylthiocholine as substrate measured after 60 mins by Ellman's method relative to control; set-up: scale not given: the % may be the effect or the level left
[25] = biological target: Acetylcholinesterase (Homo sapiens) (UniProt P22303); experiment: Reactivation of PXE-induced inhibition of AChE in human erythrocyte membranes at 1000 uM using acetylthiocholine as substrate measured after 60 mins by Ellman's method relative to control; set-up: scale not given: the % may be the effect or the level left
[26] = biological target: Acetylcholinesterase (Homo sapiens) (UniProt P22303); experiment: Reactivation of VX-induced inhibition of AChE in human erythrocyte membranes at 1000 uM using acetylthiocholine as substrate measured after 60 mins by Ellman's method relative to control; set-up: scale not given: the % may be the effect or the level left
[27] = biological target: Acetylcholinesterase (Homo sapiens) (UniProt P22303); experiment: Reactivation of GB-induced inhibition of AChE in human erythrocyte membranes at 1000 uM using acetylthiocholine as substrate measured after 60 mins by Ellman's method relative to control; set-up: scale not given: the % may be the effect or the level left

| Compound | Activity [1] | Activity [2] | Activity [3] | Activity [4] | Activity [5] | Activity [6] | Activity [7] | also measured |
| --- | --- | --- | --- | --- | --- | --- | --- | --- |
| CCCN(C)Cc1cc(N)ccc1O | inactive | Active | Active | Active | Active |  |  |  |
| Nc1ccc(O)c(CN2CCCCC2)c1 | inactive | inactive | inactive | inactive | inactive | Active | Active |  |
| Nc1ccc(O)c(Cn2cccn2)c1 | inactive |  |  |  |  |  |  |  |
| CNCc1cc(N)ccc1O | inactive | Active | Active | Active | Active |  |  |  |
| CCN(C)Cc1cc(N)ccc1O | inactive | Active | Active | Active | Active | Active | Active |  |
| CCCCCN(C)Cc1cc(N)ccc1O | inactive | Active | Active | Active | Active |  |  |  |
| CCCCCCN(C)Cc1cc(N)ccc1O | inactive | Active | Active | Active | Active |  |  |  |
| CCCCN(C)Cc1cc(N)ccc1O | inactive | Active | Active | Active | Active | Active | Active |  |
| Nc1ccc(O)c(CN2CCOCC2)c1 | inactive | inactive | inactive | inactive | inactive |  |  |  |
| CN(C)Cc1cc(N)ccc1O | inactive | Active | Active | Active | Active | Active | Active |  |
| Nc1ccc(O)c(CN2CCCC2)c1 | inactive | Active | Active | Active | Active |  |  | K [8]: 0.025 min⁻¹; K [9]: 0.02 min⁻¹; Activity [10]: 50 to 100%; K [11]: 0.174 min⁻¹; Activity [12]: 50 to 100%; K [13]: 0.205 min⁻¹; K [14]: inactive; Activity [15]: 100%; Activity [16]: 50 to 100%; K [17]: 0.19 min⁻¹; K [18]: 0.245 min⁻¹; K [19]: 0.025 min⁻¹; Activity [20]: 100%; Activity [21]: 50 to 100%; K [22]: inactive; K [23]: 0.581 min⁻¹ |
| CCN(CC)Cc1cc(N)ccc1O | inactive |  |  |  |  |  |  | K [8]: 0.001 min⁻¹; K [9]: 0.01 min⁻¹; Activity [10]: < 25%; K [11]: 0.03 min⁻¹; Activity [12]: < 25%; K [13]: 0.008 min⁻¹; K [14]: inactive; Activity [16]: < 25%; K [17]: 0.01 min⁻¹; K [18]: 0.047 min⁻¹; K [19]: 0.002 min⁻¹; Activity [21]: < 25%; K [22]: inactive; K [23]: 0.114 min⁻¹ |
| CCCN(CCC)Cc1cc(N)ccc1O | inactive |  |  |  |  | Active | Active |  |
| Nc1ccc(O)c(Cn2ccnc2)c1 | inactive |  |  |  |  | Active | Active | Activity [24]: 40 to 100%; Activity [25]: < 100%; Activity [26]: 40 to 100%; Activity [27]: 40 to 100% |
